Source: PubChem
Sampled rows, rich in hits. Any-hit rate of the full collection: about 4.2%.
MC4R barr agon: MC4R agonists recruiting beta-arrestin, primary screen, cell-based, luminescence, agonist arm of biased-ligand search; Melanocortin receptor 4 (Homo sapiens), P32245; U2OS MC4R beta-arrestin complementation; percent of melanotan II response, DMSO zero; activation, % at 8.9 µM; 360,000 compounds, 0.98% hits;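 active = activation above a per-plate cutoff, the mean activation of sample wells on that plate plus 3 SD, cut at about 8% in these data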
MC4R antag cAMP: MC4R antagonists of cAMP signaling, primary screen, cell-based, TR-FRET, antagonist arm of biased-ligand search; inhibition, % at 6.5 µM; MC4R-expressing cells, MTII-stimulated cAMP, LANCE TR-FRET; AID 540295, 2011; Melanocortin receptor 4 (Homo sapiens), P32245; 360,000 compounds, 0.48% hits;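 active = inhibition above its plate's cutoff, the mean of tested wells on that plate plus 3 SD, cut at about 29% in these data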;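 note: 0% = Melanotan II alone and 100% = Melanotan II plus saturating MCL0020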
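Assay system: human MC4R-expressing U2OS cells; reagent: Melanotan II stimulation of cells; dosing: 6.5 µM single dose; timing: compound 30 min, challenge 1 h, detection 1 h; signal: TR-FRET cAMP assay; replicates: one well per compound, no replicates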
HDAC3 inhib: HDAC3 deacetylase inhibitors, primary screen, biochemical, fluorescence, cell-free homogeneous; AID 2718, 2010; Histone deacetylase 3 (Homo sapiens), O15379; 320,000 compounds, 0.15% hits; recombinant HDAC3, fluorogenic peptide/trypsin coupled; inhibition, % at 8.3 µM; in the data active = inhibition above about 26%, passing the limit was not always enough; inconclusive = no clear call, values can overlap the other calls
Yeast UUG start: modulators of start codon recognition fidelity in yeast; AID 602363; activity score, % at 18.7 µM; S. cerevisiae UUG-firefly luciferase reporter, luminescence/redox ratio; 0.13% of 350,000 active;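 active = replicate mean at a twofold rise or more, about +100% in these data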;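 note: firefly luciferase made from a UUG start codon reports start codon fidelity; reporter light over untreated wells divided by growth signal over untreated wells; some hits fall short of that in this replicate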
ALR H2O2 inh: inhibitors of human ALR sulfhydryl oxidase, primary screen, biochemical, H2O2 detection, HRP-luminol luminescence, single point | FAD-linked sulfhydryl oxidase ALR (Homo sapiens), P55789 | purified ALR, DTT oxidation | inhibition, % (concentration not given with the values) | actives 3.8% (n = 290,000) | AID 485317, 2010;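 active = mean and each replicate at 75% or more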;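 also: stock transfer was 7.5 nL into about 7.5 µL; 0% = neutral wells and 100% = wells with inactivated enzyme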
NALP1 yeast inh: NALP1 inflammasome inhibitors in reconstituted yeast, colorimetric, S. cerevisiae, triplicate retest | inhibition, % at 10 µM | 280,000 compounds, 0.61% hits | AID 2071, 2009 | S. cerevisiae NALP1/ASC/caspase-1 growth, X-gal OD620, 72 h; in the data active = inhibition mostly above about 24%, no sharp cut-off; inactive = mostly below about 32%
Starred values were filed as active, the others as inactive; ? = inconclusive; / = not tested or not shown.

Sequences of proteins named here, by UniProt entry; tags and fusion partners are left off.
Melanocortin receptor 4 (Homo sapiens), P32245, UniProt P32245, whole entry, looked up: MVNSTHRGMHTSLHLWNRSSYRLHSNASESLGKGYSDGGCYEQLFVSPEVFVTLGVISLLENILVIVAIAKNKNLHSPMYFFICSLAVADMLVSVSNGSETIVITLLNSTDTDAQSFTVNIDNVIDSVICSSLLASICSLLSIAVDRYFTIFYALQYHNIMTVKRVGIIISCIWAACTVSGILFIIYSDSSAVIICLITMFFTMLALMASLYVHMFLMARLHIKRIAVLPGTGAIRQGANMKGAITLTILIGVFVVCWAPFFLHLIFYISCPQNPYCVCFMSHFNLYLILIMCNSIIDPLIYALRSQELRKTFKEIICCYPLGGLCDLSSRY

canonical_smiles | MC4R barr agon | MC4R antag cAMP | HDAC3 inhib | Yeast UUG start | ALR H2O2 inh | NALP1 yeast inh
CC(=O)OC1CC(C)(C)N(OC(=O)c2ccccc2)C(C)(C)C1 | 0.0 | -0.5 | -3.0 | -6.0 | / | 12.1
CC1(c2ccc(O)cc2)NC(=O)N(c2ccccc2)N1 (stereo not given) | -1.8 | 3.2 | 9.3 | -17.9 | 97.7* | -8.0
CCCCS(=O)(=O)/C=C\C1C2C=CC(C2)C1S(=O)(=O)CCCC (stereo not given) | -1.0 | 3.0 | 3.0 | 7.0 | -4.2 | -1.4
CCCCS(=O)(=O)/C=C\C=C/S(=O)(=O)CCCC | -4.2 | 13.7 | 4.6 | / | 98.3* | 125.6*
COc1ccc(CCC(C)Nc2ccc(F)cc2)cc1 (stereo not given) | 1.8 | 5.3 | 2.3 | -9.5 | 97.8* | 5.8
COc1ccc(CCC(C)Nc2cccc(C)c2)cc1 (stereo not given) | 1.5 | 0.1 | ? | -15.7 | 99.0* | 1.3
COc1ccc(CCC(C)Nc2ccc(F)c(F)c2)cc1 (stereo not given) | 0.1 | 0.9 | 5.5 | / | 38.9 | 36.5
C[C@@H]1CN([C@@H](C)CO)C(=O)c2cc(NS(=O)(=O)c3cn(C)cn3)ccc2O[C@@H](C)CCCCO[C@@H]1CN(C)C(=O)Nc1cccc2ccccc12 | / | / | / | -5.2 | / | /
NCCNC(=O)c1c(O)c2cccc3c2n(c1=O)CCC3 | -2.5 | -1.1 | -0.1 | 9.1 | -4.9 | 35.3*
CCC(CC)C(=O)N1CCN(c2ccccc2)CC1 | -1.8 | 1.0 | 7.0 | / | 98.2* | -1.6
Cc1ccc(CSCC(=O)N2CCN(c3ccc(F)cc3)CC2)cc1 | 0.3 | 5.2 | 2.8 | -9.1 | 0.6 | 4.4
Cc1ccsc1-c1nc(CSCC(=O)N2CCN(c3ccccc3)CC2)c(C)o1 | 5.0 | 13.2 | 7.5 | -17.4 | 89.2* | -20.4
O=C(CCN1C(=O)C2C3C=CC(C3)C2C1=O)N1CCN(c2ccc(F)cc2)CC1 (stereo not given) | 1.6 | 6.7 | -0.5 | -5.5 | 97.3* | 1.6
O=C(CSCc1ccc(F)cc1)N1CCN(c2ccc(F)cc2)CC1 | -0.3 | 23.0 | 2.1 | 16.6 | 97.8* | -2.2
Cc1cccn2c(=O)nc(SCC(=O)N3CCOCC3)nc12 | -3.6 | 5.1 | 5.3 | 10.4 | 3.4 | /
Cc1cccn2c(=O)nc(SCC(=O)N3CCN(c4ccccc4)CC3)nc12 | -2.5 | -4.5 | 0.3 | 2.8 | 85.6* | /
Cc1ccccc1CSCC(=O)N1CCN(c2ccccc2)CC1 | -1.5 | -0.6 | -1.0 | / | 98.5* | 29.9
O=C(CCCc1c[nH]c2ccccc12)NCC1COc2ccccc2O1 (stereo not given) | -2.8 | 2.9 | -5.7 | / | 97.5* | 6.7
O=C(CCCc1c[nH]c2ccccc12)NCc1ccc2c(c1)OCO2 | -0.9 | 12.4 | 1.2 | -6.6 | / | 1.6
COc1cccc(CNC(=O)Nc2cccs2)c1 | -0.6 | -2.2 | 1.6 | / | 99.3* | 5.8
COc1ccc(CNC(=O)Nc2cccs2)cc1OC | -1.3 | -2.4 | 3.5 | -30.2 | 4.7 | -2.6
COc1ccccc1CNC(=O)Nc1cccs1 | 0.0 | 8.8 | 13.3 | -13.3 | 97.4* | 3.1
Cc1ccc(C(=O)N/C(=C/c2ccc(N(C)C)cc2)C(=O)NCC2CCCO2)cc1 (stereo not given) | -1.6 | 2.0 | 1.6 | 10.4 | 86.8* | 16.5
CCCCc1ccc(NC(=S)NCC2CCCO2)cc1 (stereo not given) | -2.0 | 16.6 | 0.2 | -27.4 | / | 2.0
CN(C)c1ccc(NC(=S)NCC2CCCO2)cc1 (stereo not given) | 0.4 | -2.0 | -2.4 | / | 99.5* | 39.2
Cc1cc(N2CCCC(C(=O)Nc3cccc(Cl)c3)C2)n2ncnc2n1 (stereo not given) | -1.6 | 2.7 | 2.4 | / | -11.2 | 17.9
Cc1cc(C)nc(N2CCCC(C(=O)Nc3cccc(Cl)c3)C2)n1 (stereo not given) | 8.4* | 19.8 | -10.2 | -19.3 | -2.4 | 6.5
COc1cccc(NC(=O)C[C@H]2CC[C@@H]3[C@@H](COc4ccc(NC(=O)C5CCCCC5)cc4C(=O)N3C)O2)c1 | / | / | / | -3.5 | / | /
N=c1sccn1CC(=O)Nc1ccccc1Cc1ccccc1 | -1.3 | 2.3 | -2.7 | -17.4 | -6.5 | 17.3
N=c1sccn1CC(=O)Nc1ccccc1Oc1ccccc1 | 1.1 | -1.7 | -1.6 | -15.8 | -1.9 | 38.0*
O=C(O)c1ccc(NC(=O)c2cccc(NC(=O)c3cccs3)c2)cc1 | 1.2 | 4.6 | 1.0 | -19.3 | -9.4 | 35.5*
O=C(O)c1cccc(NC(=O)c2ccccc2NC(=O)c2cccs2)c1 | 0.6 | 9.2 | / | -12.3 | / | /
O=C(Nc1ccccc1C(=O)Nc1ccccc1)c1cccs1 | 9.0* | 10.3 | -7.1 | -22.9 | -3.7 | 3.7
O=C(Nc1cccc(O)c1)c1ccc(NC(=O)c2cccs2)cc1 | -5.5 | -2.6 | / | -21.8 | -3.5 | 9.8
Nc1ccc(NC(=O)c2cccs2)cc1 | -3.5 | 15.6 | 2.9 | / | 98.4* | 7.0
Nc1nc(Nc2ccccc2)nc2ccccc12 | 0.9 | -6.0 | 3.2 | -37.0 | -6.3 | 19.6
CN(C)c1ccc(Nc2nc(N)c3ccccc3n2)cc1 | -1.6 | -19.1 | 7.7 | -80.1 | 99.4* | 5.6
O=C(C[C@@H]1C[C@@H]2c3cc(NS(=O)(=O)c4ccc(F)cc4)ccc3O[C@@H]2[C@H](CO)O1)NCC(F)(F)F | / | / | / | -10.5 | / | /
Cc1cc(C)c(O)c(-c2cc(C(=O)Nc3c(C)n(C)n(-c4ccccc4)c3=O)[nH]n2)c1 | -0.6 | -0.5 | -1.0 | -7.7 | 98.6* | -4.4
CNC(=O)C[C@@H]1CC[C@H]2[C@@H](COC[C@H](O)CN2C(=O)c2ccccn2)O1 | / | / | / | -13.2 | / | /
Cc1ccc(NC(=O)C(=O)NC(C)C2COc3ccccc3O2)cc1 (stereo not given) | 10.9* | -3.2 | -7.3 | 1.4 | 2.1 | 14.7
COCC(=O)Nc1nc(-c2ccc(-c3ccccc3)cc2)cs1 | -0.1 | -3.0 | -4.5 | -24.6 | -3.2 | 4.9
CCOC(=O)Cc1csc(NC(=O)Cc2ccc(Cl)cc2)n1 | -1.6 | 9.7 | -3.4 | / | -1.4 | 2.1
CCOC(=O)Cc1csc(NC(=O)NC2(C(F)(F)F)Oc3ccc(Cl)cc3O2)n1 (stereo not given) | 6.2 | 16.9 | 1.4 | / | ? | -5.8
CCOC(=O)Cc1csc(NC(=O)Cc2ccc(Br)cc2)n1 | -1.5 | 0.7 | 4.4 | / | -3.6 | 35.4*
CCOC(=O)Cc1csc(NC(=O)NC2(C(F)(F)F)Oc3cc(Cl)c(Cl)cc3O2)n1 | -2.2 | 2.9 | 6.9 | -23.1 | 98.4* | -3.0
CCOC(=O)Cc1csc(NC(=O)Cc2ccc([N+](=O)[O-])cc2)n1 | -0.5 | 3.9 | 1.0 | / | 98.3* | 15.8

Look-ups from above:
MC4R barr agon result of Nc1ccc(NC(=O)c2cccs2)cc1 → -3.5
NALP1 yeast inh result of Cc1cc(C)c(O)c(-c2cc(C(=O)Nc3c(C)n(C)n(-c4ccccc4)c3=O)[nH]n2)c1 → -4.4
Yeast UUG start result of O=C(C[C@@H]1C[C@@H]2c3cc(NS(=O)(=O)c4ccc(F)cc4)ccc3O[C@@H]2[C@H](CO)O1)NCC(F)(F)F → -10.5
MC4R antag cAMP result of O=C(O)c1ccc(NC(=O)c2cccc(NC(=O)c3cccs3)c2)cc1 → 4.6

Random excerpt: 3 entries already listed, in no set order.
canonical_smiles | MC4R barr agon | MC4R antag cAMP | HDAC3 inhib | Yeast UUG start | ALR H2O2 inh | NALP1 yeast inh
CCOC(=O)Cc1csc(NC(=O)NC2(C(F)(F)F)Oc3ccc(Cl)cc3O2)n1 (stereo not given) | 6.2 | 16.9 | 1.4 | / | ? | -5.8
CCOC(=O)Cc1csc(NC(=O)Cc2ccc(Br)cc2)n1 | -1.5 | 0.7 | 4.4 | / | -3.6 | 35.4*
O=C(Nc1ccccc1C(=O)Nc1ccccc1)c1cccs1 | 9.0* | 10.3 | -7.1 | -22.9 | -3.7 | 3.7
